The assay concerns elevated heart rate. The assay can be described thus: Additional in vivo dog experiments: dermal clearance enhancer pretreatment then arbutamine TDI (Example C). Also on record: species or system labrador dogs. The conditions noted are these: heart rate decline, Table VII, single dog run; listed as Control, hydrochloride. As for the experimental part:
Additional experiments were performed to study the effect of certain compositions on the offset time and dermal clearance in dogs.
In these experiments, the formulation to be tested was applied either topically or by transdermal iontophoresis (TDI) as described below.
Six labrador dogs (20 to 30 kg) were trained to lie quietly on a table. Before each experiment, three ECG electrodes (one lead) were applied on shaved areas of the back (near the front legs) to obtain the heart rate. The outer hind leg area (either right or left) was shaved prior to each experiment, with care taken not to cut or visibly damage the skin. […]
Each vasodilator that was delivered by TDI used a 1.8 cm^2 electrode (Graphic Controls, Buffalo, N.Y.) containing the vasodilator in a gel at the concentrations listed in experimental methods section. […] During this time the heart rate was continuously recorded (at 5 second intervals) with the ESA Research System. […]
Each topically applied vasodilator was applied to the skin in a volume of approximately 0.25 ml. The agent was allowed to absorb into the skin, during which time the heart rate was continuously recorded for 10 minutes using the ESA Research System.
To test if heat alone would produce sufficient vasodilation, a 60° C. hot pack was applied to the skin 10 minutes prior to drug delivery, during which time the heat rate was continuously recorded by the ESA System. […]

Experimental findings from patent US5383848A, “Iontophoretic administration of drugs” (Gensia, Inc., priority 1991, dated 1995) are described below.

Each structure is given as a SMILES string. Where “and” joins values, the source holds several entries; their conditions need not be identical. Equal values may be shown once.

Take `Cl.Oc1ccc(CCCCNCC(O)c2ccc(O)c(O)c2)cc1` (stereo not shown) [Arbutamine, 1-(3,4-dihydroxy-phenyl)-2-(4-(4-hydroxyphenyl)butylamino)ethanol hydrochloride]: the HALF-LIFE was 19.89 min and 19.23 min.
